# Data reported in patent US20250161243A1, “MEF2 TRANSCRIPTIONAL ACTIVATORS TO TREAT NEUROLOGIC CONDITIONS” (The Scripps Research Institute, priority 2022, published 2025).
# Tested on: MEF2 transcriptional activity
# Experiment: MEF2 transcriptional activity screen (Luciferase-MEF2 reporter in human neural progenitor cells)
# Details: read-out: qAC50 [M]
smiles,measurement,value
CN(C)CCCOc1ccc(-c2ccc3ncc4c(c3c2)n(C2CCOCC2)c(=O)n4C)cn1 [AZD-0156],EC50,1.18e-05 M
